Assay results taken from FireProtDB (doi:10.1110/ps.840101).

B1: Alpha-1-antitrypsin, P01009 (parent)
chain: MPSSVSWGILLLAGLCCLVPVSLAEDPQGDAAQKTDTSHHDQDHPTFNKITPNLAEFAFSLYRQLAHQSNSTNIFFSPVSIATAFAMLSLGTKADTHDEILEGLNFNLTEIPEAQIHEGFQELLRTLNQPDSQLQLTTGNGLFLSEGLKLVDKFLEDVKKLYHSEAFTVNFGDTEEAKKQINDYVEKGTQGKIVDLVKELDRDTVFALVNYIFFKGKWERPFEVKDTEEEDFHVDQVTTVKVPMMKRLGMFNIQHCKKLSSWVLLMKYLGNATAIFFLPDEGKLQHLENELTHDIITKFLENEDRRSASLHLPKLSITGTYDLKSVLGQLGITKVFSNGADLSGVTEEAPLKLSKAVHKAVLTIDEKGTEAAGAMFLEAIPMSIPPEVKFNKPFVFLMIEQNTKSPLFMGKVVNPTQK

Variants of: B1
Details: Homo sapiens; pH 6.5; 25 °C; GdnHCl; Fluorescence; phosphate 10 mM; NaCl 50 mM; reversible: Unknown; structure 1QLP; whole UniProt chain shown

Row | Variant | ddG of mutation (higher = less stable)
1 | MPSSVSWGILLLAGLCCLVPVSLAEDPQGDAAQKTDTSHHDQDHPTFNKITPNLAEFAFSLYRQLAHQSNSTNIFFSPVSIATAFAMLSLGTKADTHDEILEGLNFNLTEIPEAQIHEGFQELLRTLNQPDSQLQLTTGNGLFLSEGLKLVDKFLEDVKKLYHSEAFTINFGDTEEAKKQINDYVEKGTQGKIVDLVKELDRDTVFALVNYIFFKGKWERPFEVKDTEEEDFHVDQVTTVKVPMMKRLGMFNIQHCKKLSSWVLLMKYLGNATAIFFLPDEGKLQHLENELTHDIITKFLENEDRRSASLHLPKLSITGTYDLKSVLGQLGITKVFSNGADLSGVTEEAPLKLSKAVHKAVLTIDEKGTEAAGAMFLEAIPMSIPPEVKFNKPFVFLMIEQNTKSPLFMGKVVNPTQK [V169I] | -0.2 kcal/mol
2 | MPSSVSWGILLLAGLCCLVPVSLAEDPQGDAAQKTDTSHHDQDHPTFNKITPNLAEFAFSLYRQLAHQSNSTNIFFSPVSIATAFAMLSLGTKADTHDEILEGLNFNLTEIPEAQIHEGFQELLRTLNQPDSQLQLTTGNGLFLSEGLKLVDKFLEDVKKLYHSEAFTLNFGDTEEAKKQINDYVEKGTQGKIVDLVKELDRDTVFALVNYIFFKGKWERPFEVKDTEEEDFHVDQVTTVKVPMMKRLGMFNIQHCKKLSSWVLLMKYLGNATAIFFLPDEGKLQHLENELTHDIITKFLENEDRRSASLHLPKLSITGTYDLKSVLGQLGITKVFSNGADLSGVTEEAPLKLSKAVHKAVLTIDEKGTEAAGAMFLEAIPMSIPPEVKFNKPFVFLMIEQNTKSPLFMGKVVNPTQK [V169L] | 0.7 kcal/mol
3 | MPSSVSWGILLLAGLCCLVPVSLAEDPQGDAAQKTDTSHHDQDHPTFNKITPNLAEFAFSLYRQLAHQSNSTNIFFSPVSIATAFAMLSLGTKADTHDEILEGLNFNLTEIPEAQIHEGFQELLRTLNQPDSQLQLTTGNGLFLSEGLKLVDKFLEDVKKLYHSEAFTVNFGDTEEAKKQINDYVEKGTQGKIVDLVKELDRDTVFALVNYIFFKGKWERPFEVKDTEEEDFHVDQVTTVKVPMMKRLGMFNIQHCKKLSSWVLLMKYLGNVTAIFFLPDEGKLQHLENELTHDIITKFLENEDRRSASLHLPKLSITGTYDLKSVLGQLGITKVFSNGADLSGVTEEAPLKLSKAVHKAVLTIDEKGTEAAGAMFLEAIPMSIPPEVKFNKPFVFLMIEQNTKSPLFMGKVVNPTQK [A272V] | -2.3 kcal/mol
4 | MPSSVSWGILLLAGLCCLVPVSLAEDPQGDAAQKTDTSHHDQDHPTFNKITPNLAEFAFSLYRQLAHQSNSTNIFFSPVSIATAFAMLSLGTKADTHDEILEGLNFNLTEIPEAQIHEGFQELLRTLNQPDSQLQLTTGNGLFLSEGLKLVDKFLEDVKKLYHSEAFTVNFGDTEEAKKQINDYVEKGTQGKIVDLVKELDRDTVFALVNYIFFKGKWERPFEVKDTEEEDFHVDQVTTVKVPMMKRLGMFNIQHCKKLSSWVLLMKYLGNITAIFFLPDEGKLQHLENELTHDIITKFLENEDRRSASLHLPKLSITGTYDLKSVLGQLGITKVFSNGADLSGVTEEAPLKLSKAVHKAVLTIDEKGTEAAGAMFLEAIPMSIPPEVKFNKPFVFLMIEQNTKSPLFMGKVVNPTQK [A272I] | -2.2 kcal/mol
5 | MPSSVSWGILLLAGLCCLVPVSLAEDPQGDAAQKTDTSHHDQDHPTFNKITPNLAEFAFSLYRQLAHQSNSTNIFFSPVSIATAFAMLSLGTKADTHDEILEGLNFNLTEIPEAQIHEGFQELLRTLNQPDSQLQLTTGNGLFLSEGLKLVDKFLEDVKKLYHSEAFTVNFGDTEEAKKQINDYVEKGTQGKIVDLVKELDRDTVFALVNYIFFKGKWERPFEVKDTEEEDFHVDQVTTVKVPMMKRLGMFNIQHCKKLSSWVLLMKYLGNFTAIFFLPDEGKLQHLENELTHDIITKFLENEDRRSASLHLPKLSITGTYDLKSVLGQLGITKVFSNGADLSGVTEEAPLKLSKAVHKAVLTIDEKGTEAAGAMFLEAIPMSIPPEVKFNKPFVFLMIEQNTKSPLFMGKVVNPTQK [A272F] | -1.8 kcal/mol
6 | MPSSVSWGILLLAGLCCLVPVSLAEDPQGDAAQKTDTSHHDQDHPTFNKITPNLAEFAFSLYRQLAHQSNSTNIFFSPISIATAFAMLSLGTKADTHDEILEGLNFNLTEIPEAQIHEGFQELLRTLNQPDSQLQLTTGNGLFLSEGLKLVDKFLEDVKKLYHSEAFTVNFGDTEEAKKQINDYVEKGTQGKIVDLVKELDRDTVFALVNYIFFKGKWERPFEVKDTEEEDFHVDQVTTVKVPMMKRLGMFNIQHCKKLSSWVLLMKYLGNATAIFFLPDEGKLQHLENELTHDIITKFLENEDRRSASLHLPKLSITGTYDLKSVLGQLGITKVFSNGADLSGVTEEAPLKLSKAVHKAVLTIDEKGTEAAGAMFLEAIPMSIPPEVKFNKPFVFLMIEQNTKSPLFMGKVVNPTQK [V79I] | 0.2 kcal/mol
7 | MPSSVSWGILLLAGLCCLVPVSLAEDPQGDAAQKTDTSHHDQDHPTFNKITPNLVEFAFSLYRQLAHQSNSTNIFFSPVSIATAFAMLSLGTKADTHDEILEGLNFNLTEIPEAQIHEGFQELLRTLNQPDSQLQLTTGNGLFLSEGLKLVDKFLEDVKKLYHSEAFTVNFGDTEEAKKQINDYVEKGTQGKIVDLVKELDRDTVFALVNYIFFKGKWERPFEVKDTEEEDFHVDQVTTVKVPMMKRLGMFNIQHCKKLSSWVLLMKYLGNATAIFFLPDEGKLQHLENELTHDIITKFLENEDRRSASLHLPKLSITGTYDLKSVLGQLGITKVFSNGADLSGVTEEAPLKLSKAVHKAVLTIDEKGTEAAGAMFLEAIPMSIPPEVKFNKPFVFLMIEQNTKSPLFMGKVVNPTQK [A55V] | -0.6 kcal/mol
8 | MPSSVSWGILLLAGLCCLVPVSLAEDPQGDAAQKTDTSHHDQDHPTFNKITPNLPEFAFSLYRQLAHQSNSTNIFFSPVSIATAFAMLSLGTKADTHDEILEGLNFNLTEIPEAQIHEGFQELLRTLNQPDSQLQLTTGNGLFLSEGLKLVDKFLEDVKKLYHSEAFTVNFGDTEEAKKQINDYVEKGTQGKIVDLVKELDRDTVFALVNYIFFKGKWERPFEVKDTEEEDFHVDQVTTVKVPMMKRLGMFNIQHCKKLSSWVLLMKYLGNATAIFFLPDEGKLQHLENELTHDIITKFLENEDRRSASLHLPKLSITGTYDLKSVLGQLGITKVFSNGADLSGVTEEAPLKLSKAVHKAVLTIDEKGTEAAGAMFLEAIPMSIPPEVKFNKPFVFLMIEQNTKSPLFMGKVVNPTQK [A55P] | -2.5 kcal/mol
9 | MPSSVSWGILLLAGLCCLVPVSLAEDPQGDAAQKTDTSHHDQDHPTFNKITPNLLEFAFSLYRQLAHQSNSTNIFFSPVSIATAFAMLSLGTKADTHDEILEGLNFNLTEIPEAQIHEGFQELLRTLNQPDSQLQLTTGNGLFLSEGLKLVDKFLEDVKKLYHSEAFTVNFGDTEEAKKQINDYVEKGTQGKIVDLVKELDRDTVFALVNYIFFKGKWERPFEVKDTEEEDFHVDQVTTVKVPMMKRLGMFNIQHCKKLSSWVLLMKYLGNATAIFFLPDEGKLQHLENELTHDIITKFLENEDRRSASLHLPKLSITGTYDLKSVLGQLGITKVFSNGADLSGVTEEAPLKLSKAVHKAVLTIDEKGTEAAGAMFLEAIPMSIPPEVKFNKPFVFLMIEQNTKSPLFMGKVVNPTQK [A55L] | -0.9 kcal/mol
10 | MPSSVSWGILLLAGLCCLVPVSLAEDPQGDAAQKTDTSHHDQDHPTFNKITPNLAEFAFSLYRQLAHQSNSTNIFFSPVSIATAFAMLSLGTKADTHDEILEGLNFNLTEIPEAQIHEGFQELLRTLNQPDSQLQLTTGNGLFLSEGLKLVDKFLEDVKKLYHSEAFTVNFGDTEEAKKQINDYVEKGTQGKIVDLLKELDRDTVFALVNYIFFKGKWERPFEVKDTEEEDFHVDQVTTVKVPMMKRLGMFNIQHCKKLSSWVLLMKYLGNATAIFFLPDEGKLQHLENELTHDIITKFLENEDRRSASLHLPKLSITGTYDLKSVLGQLGITKVFSNGADLSGVTEEAPLKLSKAVHKAVLTIDEKGTEAAGAMFLEAIPMSIPPEVKFNKPFVFLMIEQNTKSPLFMGKVVNPTQK [V197L] | 0.6 kcal/mol
11 | MPSSVSWGILLLAGLCCLVPVSLAEDPQGDAAQKTDTSHHDQDHPTFNKITPNLAEFAFSLYRQLAHQSNSTNIFFSPVSIATAFAMLSLGTKADTHDEILEGLNFNLTEIPEAQIHEGFQELLRTLNQPDSQLQLTTGNGLFLSEGLKLVDKFLEDVKKLYHSEAFTVNFGDTEEAKKQINDYVEKGTQGKIVDLIKELDRDTVFALVNYIFFKGKWERPFEVKDTEEEDFHVDQVTTVKVPMMKRLGMFNIQHCKKLSSWVLLMKYLGNATAIFFLPDEGKLQHLENELTHDIITKFLENEDRRSASLHLPKLSITGTYDLKSVLGQLGITKVFSNGADLSGVTEEAPLKLSKAVHKAVLTIDEKGTEAAGAMFLEAIPMSIPPEVKFNKPFVFLMIEQNTKSPLFMGKVVNPTQK [V197I] | -0.5 kcal/mol
12 | MPSSVSWGILLLAGLCCLVPVSLAEDPQGDAAQKTDTSHHDQDHPTFNKITPNLAEFAFSLYRQLAHQSNSTNIFFSPVSIATAFAMLSLGTKADTHDEILEGLNFNLTEIPEAQIHEGFQELLRTLNQPDSQLQLTTGNGLFLSEGLKLVDKFLEDVKKLYHSEAFTVNFGDTEEAKKQINDYVEKGTQGKIVDLVKELDRDTVFVLVNYIFFKGKWERPFEVKDTEEEDFHVDQVTTVKVPMMKRLGMFNIQHCKKLSSWVLLMKYLGNATAIFFLPDEGKLQHLENELTHDIITKFLENEDRRSASLHLPKLSITGTYDLKSVLGQLGITKVFSNGADLSGVTEEAPLKLSKAVHKAVLTIDEKGTEAAGAMFLEAIPMSIPPEVKFNKPFVFLMIEQNTKSPLFMGKVVNPTQK [A207V] | -3.8 kcal/mol
13 | MPSSVSWGILLLAGLCCLVPVSLAEDPQGDAAQKTDTSHHDQDHPTFNKITPNLAEFAFSLYRQLAHQSNSTNIFFSPVSIATAFAMLSLGTKADTHDEILEGLNFNLTEIPEAQIHEGFQELLRTLNQPDSQLQLTTGNGLFLSEGLKLVDKFLEDVKKLYHSEAFTVNFGDTEEAKKQINDYVEKGTQGKIVDLVKELDRDTVFFLVNYIFFKGKWERPFEVKDTEEEDFHVDQVTTVKVPMMKRLGMFNIQHCKKLSSWVLLMKYLGNATAIFFLPDEGKLQHLENELTHDIITKFLENEDRRSASLHLPKLSITGTYDLKSVLGQLGITKVFSNGADLSGVTEEAPLKLSKAVHKAVLTIDEKGTEAAGAMFLEAIPMSIPPEVKFNKPFVFLMIEQNTKSPLFMGKVVNPTQK [A207F] | -1.5 kcal/mol
14 | MPSSVSWGILLLAGLCCLVPVSLAEDPQGDAAQKTDTSHHDQDHPTFNKITPNLAEFAFSLYRQLAHQSNSTNIFFSPVSIATAFAMLSLGTKADTHDEILEGLNFNLTEIPEAQIHEGFQELLRTLNQPDSQLQLTTGNGLFLSEGLKLVDKFLEDVKKLYHSEAFTVNFGDTEEAKKQINDYVEKGTQGKIVDLVKELDRDTVFLLVNYIFFKGKWERPFEVKDTEEEDFHVDQVTTVKVPMMKRLGMFNIQHCKKLSSWVLLMKYLGNATAIFFLPDEGKLQHLENELTHDIITKFLENEDRRSASLHLPKLSITGTYDLKSVLGQLGITKVFSNGADLSGVTEEAPLKLSKAVHKAVLTIDEKGTEAAGAMFLEAIPMSIPPEVKFNKPFVFLMIEQNTKSPLFMGKVVNPTQK [A207L] | -1.4 kcal/mol
15 | MPSSVSWGILLLAGLCCLVPVSLAEDPQGDAAQKTDTSHHDQDHPTFNKITPNLAEFAFSLYRQLAHQSNSTNIFFSPVSIATAFAMLSLGTKADTHDEILEGLNFNLTEIPEAQIHEGFQELLRTLNQPDSQLQLTTGNGLFLSEGLKLVDKFLEDVKKLYHSEAFTVNFGDTEEAKKQINDYVEKGTQGKIVDLVKELDRDTVFILVNYIFFKGKWERPFEVKDTEEEDFHVDQVTTVKVPMMKRLGMFNIQHCKKLSSWVLLMKYLGNATAIFFLPDEGKLQHLENELTHDIITKFLENEDRRSASLHLPKLSITGTYDLKSVLGQLGITKVFSNGADLSGVTEEAPLKLSKAVHKAVLTIDEKGTEAAGAMFLEAIPMSIPPEVKFNKPFVFLMIEQNTKSPLFMGKVVNPTQK [A207I] | -1.8 kcal/mol
